Experiment [1] has as its target Cannabinoid receptor 2 (Mus musculus) (UniProt P47936). Put plainly: Agonist activity at CB2 receptor in mouse spleen membrane assessed as reduction in forskolin-induced cAMP production at 0.1 to 10 uM incubated for 30 mins by LANCE ULTRA cAMP TR-FRET assay. The note with it: filed as agonist, dose 0.1-10 µM. The class given is functional, cell membranes. For orientation: Cyclic AMP is a second messenger, typically raised through Gs and lowered through Gi signalling.

Amino acid sequences for entries named in this document (tags omitted). A change or cut given only in a name is not applied to a line headed by its entry.
UniProt P47936: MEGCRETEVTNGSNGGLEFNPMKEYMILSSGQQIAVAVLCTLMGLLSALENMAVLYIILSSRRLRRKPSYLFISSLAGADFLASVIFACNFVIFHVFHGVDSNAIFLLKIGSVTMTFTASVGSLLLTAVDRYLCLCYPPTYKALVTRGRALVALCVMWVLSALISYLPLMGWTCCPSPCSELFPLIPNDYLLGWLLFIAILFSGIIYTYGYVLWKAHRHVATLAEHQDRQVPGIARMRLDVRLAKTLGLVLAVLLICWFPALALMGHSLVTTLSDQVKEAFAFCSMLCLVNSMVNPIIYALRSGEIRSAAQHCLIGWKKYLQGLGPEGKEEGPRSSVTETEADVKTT
UniProt O75762, whole entry: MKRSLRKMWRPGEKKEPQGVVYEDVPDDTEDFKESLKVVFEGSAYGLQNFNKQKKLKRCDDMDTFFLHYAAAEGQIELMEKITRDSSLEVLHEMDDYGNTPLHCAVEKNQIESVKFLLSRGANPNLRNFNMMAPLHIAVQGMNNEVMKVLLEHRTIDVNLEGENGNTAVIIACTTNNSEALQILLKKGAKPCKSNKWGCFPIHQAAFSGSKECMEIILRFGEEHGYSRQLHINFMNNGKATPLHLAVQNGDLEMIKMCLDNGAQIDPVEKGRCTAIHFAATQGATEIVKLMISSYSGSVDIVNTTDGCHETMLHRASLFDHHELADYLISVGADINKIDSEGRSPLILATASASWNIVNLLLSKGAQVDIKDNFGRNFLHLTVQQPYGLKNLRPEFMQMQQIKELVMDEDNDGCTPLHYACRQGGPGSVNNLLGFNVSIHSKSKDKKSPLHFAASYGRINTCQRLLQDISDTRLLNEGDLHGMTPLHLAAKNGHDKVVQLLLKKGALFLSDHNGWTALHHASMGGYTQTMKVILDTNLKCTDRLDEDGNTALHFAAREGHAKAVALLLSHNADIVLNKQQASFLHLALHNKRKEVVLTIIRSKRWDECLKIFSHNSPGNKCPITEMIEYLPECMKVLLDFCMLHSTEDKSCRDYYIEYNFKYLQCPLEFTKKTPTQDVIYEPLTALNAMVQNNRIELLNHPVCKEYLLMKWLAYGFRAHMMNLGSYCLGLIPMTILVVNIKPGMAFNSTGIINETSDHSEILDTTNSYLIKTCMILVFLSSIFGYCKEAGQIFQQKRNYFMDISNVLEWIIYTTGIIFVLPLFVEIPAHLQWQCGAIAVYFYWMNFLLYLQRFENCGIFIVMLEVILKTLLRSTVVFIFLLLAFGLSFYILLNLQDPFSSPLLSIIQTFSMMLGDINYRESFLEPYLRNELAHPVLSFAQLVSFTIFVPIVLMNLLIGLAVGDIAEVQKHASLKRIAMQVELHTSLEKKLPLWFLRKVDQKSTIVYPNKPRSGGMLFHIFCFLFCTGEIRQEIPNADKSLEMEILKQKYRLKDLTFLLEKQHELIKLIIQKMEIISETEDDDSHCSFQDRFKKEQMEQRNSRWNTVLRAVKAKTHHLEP

In experiment [2] the target is Transient receptor potential cation channel subfamily A member 1 (Homo sapiens) (UniProt O75762). Put plainly: Activation of TRPA1 (unknown origin) upto 25 uM.

The source made the active and inactive calls. The rule behind the calls is not given here.

Regarding `O=C(Nc1cccc(-c2ccccc2)c1)c1cccn1Cc1ccc(F)cc1`, the result in experiment [1] was Active. In addition, the result in experiment [2] was inactive.

The values are drawn from ChEMBL document CHEMBL5512638, “Novel pyrrole based CB2 agonists: New insights on CB2 receptor role in regulating neurotransmitters' tone” (Eur J Med Chem, 2024).
